## Ab-14 light chain CDR variants: yeast mating affinities

From the AlphaSeq antibody data of Engelhart et al. 2022 (doi:10.1038/s41597-022-01779-4), copy in the FLAb collection.

The target is the same throughout: PDVDLGDISGINAS, from the HR2 region of SARS-CoV-2 spike.

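Library AAYL50 holds single substitutions and randomly drawn double and triple substitutions in the CDRs. The scFvs were displayed on barcoded MATa yeast, the peptide on MATalpha yeast. The frequency of each diploid, read from paired DNA barcodes, reflects how well the two displayed proteins bind. A regression on co-assayed BCL2-family reference pairs converts the normalised counts of each replicate to an apparent Kd. Mating was done three times.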

Parent scFv Ab-14: VH joined to VL by a 15-residue (Gly4Ser)3 linker. Changes lie in the light chain CDRs alone.
VH: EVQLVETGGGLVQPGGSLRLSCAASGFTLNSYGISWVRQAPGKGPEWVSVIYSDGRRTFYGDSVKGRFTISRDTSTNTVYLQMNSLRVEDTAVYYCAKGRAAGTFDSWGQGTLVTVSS
VL: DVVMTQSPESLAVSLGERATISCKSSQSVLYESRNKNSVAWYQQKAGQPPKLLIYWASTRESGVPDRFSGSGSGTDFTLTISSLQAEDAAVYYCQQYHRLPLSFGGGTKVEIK

The parent's light chain CDRs are KSSQSVLYESRNKNSVA, WASTRES, QQYHRLPLS; each variant's own CDRs replace them letter for letter.
The Kd shown is the geometric mean over detected replicates; a lower Kd is a better binder.
Where no diploid with the target was found in any replicate, the entry reads "no signal": below detection, most likely a poor binder, though not proof of it.
The list is sorted by this average, lowest first, undetected variants last.
For reference, the parent read 4.4 nM as the reference entry and 48 nM as a member of this library.
Three control strains display no target. For library AAYL50, 18% of the pairings with them gave a signal, with a median of 15 µM and one signal in twenty below 970 nM, so weak values seen in few replicates may be background. For each scFv, signals with the empty controls are counted beside the result.

CDR-L1	CDR-L2	CDR-L3	Kd (apparent)	replicates with signal	signal with controls
KFSQSDLMESRNKNSVA	WASTRES	QQYHRLPLS	2.0 nM	3 of 3	1 of 9
KIFQSVLYESVNKNSVA	WASTRES	QQYHRLPLS	2.3 nM	3 of 3	0 of 9
KFSQSDLYESRNKNSVA	WASTRES	QQYHRLPLS	2.8 nM	3 of 3	5 of 9
KSSQSVDYESKNKNSVA	WASTREM	QQYHRLPLS	3.7 nM	3 of 3	0 of 9
KSSQSVYYELINKNSVA	WASTRES	QQYHRLPLS	4.1 nM	3 of 3	0 of 9
KSSQHVLYESRNKNSVR	WASTREQ	QQYHRLPLS	4.8 nM	3 of 3	0 of 9
KSSQSALYESRNKNSVA	WASTRES	QQYHRGPLS	6.6 nM	3 of 3	3 of 9
KSSWSVLFESRNKNSVA	WASTRES	QQYHRLRLS	7.0 nM	3 of 3	3 of 9
KDQQSVLYESRNKNSVA	WASTRES	QQYHRLPQS	9.3 nM	3 of 3	0 of 9
KSSQSVLYESRNKNSVA	AASTRLS	QQYHRLPHS	12 nM	3 of 3	0 of 9
KSSQSVLYETRNKNSVA	WASTRES	QQKHCLPLS	20 nM	3 of 3	2 of 9
KSSQSVLEESRNKNSVA	WASNRES	QQYHRDPLS	22 nM	3 of 3	1 of 9
KVSQSELYESRNKNSVA	WASTRES	QQYHRPPLS	24 nM	3 of 3	1 of 9
KSSQSWLYESRNDNSVA	WASWRES	QQYHRLPLS	27 nM	3 of 3	0 of 9
KSSQSVLYESRNKHSVA	WAGTRES	QQYNRLPLS	32 nM	3 of 3	0 of 9
KWSQSVLYESRNKNSVA	WASTRDS	QQGHRLPLS	47 nM	3 of 3	3 of 9
SESQSVLYESRNKNSVA	WASTRES	QQYHRLPLS	49 nM	3 of 3	0 of 9
KSSQSVLYESHNKNSVA	WASTRES	QQYHRPPLS	54 nM	3 of 3	3 of 9
KASQSVLYESRNKNSVA	WASTREA	QQYHRLELS	66 nM	3 of 3	0 of 9
KSSQSVLYESRWKNSVA	YASTRES	QMYHRLPLS	89 nM	3 of 3	1 of 9
KSSQSVLYESRCKNSVA	WASRREP	QQYHRLPLS	140 nM	3 of 3	4 of 9
KSSQSVLYEARNKNSVA	WASSLES	QQYHRLPLS	160 nM	3 of 3	0 of 9
KSSQKVLYESCNKNSVA	WASTRES	QQYHILPLS	260 nM	3 of 3	4 of 9
KSSQCVLYESRNKNSVA	WASTRES	QQYHQEPLS	260 nM	1 of 3	1 of 9
ESSQSVLTESRNKNSVA	WAITRES	QQYHRLPLS	280 nM	3 of 3	7 of 9
KSSQSHLYESRNKNSVQ	WASTRES	QQYHRLPLS	290 nM	1 of 3	0 of 9
SSSQSVLYESRNANEVA	WASTRES	QQYHRLPLS	520 nM	3 of 3	2 of 9
KSSGSVLYENRNKNSVA	WANTRES	QQYHRLPLS	730 nM	3 of 3	1 of 9
RSSQSVLYMARNKNSVA	WASTRES	QQYHRLPLS	780 nM	3 of 3	6 of 9
KSSQSRLYESRPKNSVA	WASTDES	QQYHRLPLS	840 nM	1 of 3	2 of 9
KSSQSVLSESRNFNSVA	WASTRES	QQYHRWPLS	1.0 µM	3 of 3	2 of 9
KSGQSVLYESRNKNSVA	WASTRIS	QQYHILPLS	1.4 µM	3 of 3	0 of 9
KSSQSVLYESRNKNSVA	WASTRES	FQLHRLPLG	3.1 µM	1 of 3	0 of 9
KSSQSVLYVSRNKNSVA	WKSTREW	QQYHRLPLS	3.7 µM	1 of 3	2 of 9
KSSQSVLYESRNKNGVA	WAVCRES	QQYHRLPLS	3.8 µM	3 of 3	2 of 9
KSSQSVLMESRNKNSVA	WAHTRES	QKYHRLPLS	4.4 µM	3 of 3	1 of 9
KSIQSVLYESRNKNSVA	WASTRES	QQYHRLPMS	7.2 µM	3 of 3	1 of 9
KSSQSVLYESCNKNSVA	WANTRES	QQYHRLPLI	8.2 µM	2 of 3	0 of 9
KSSQSVLMASRNKNSVA	WASTRES	LQYHRLPLS	8.5 µM	1 of 3	0 of 9
KSSQSVLYESRNKDSVA	WASTRHS	QQYHRLPLC	9.5 µM	2 of 3	3 of 9
KSEQSVLYESRNHNSVA	WASTRES	QQYHRLPTS	11 µM	2 of 3	6 of 9
KSSQSILYEIRNKNSVA	WASTRES	QQYWRLPLS	12 µM	3 of 3	2 of 9
KSSQSVRYESRNKNSMA	WESTRES	QQYHRLPLS	37 µM	2 of 3	2 of 9
KSSQIVAYESVNKNSVA	WASTRES	QQYHRLPLS	52 µM	2 of 3	1 of 9
KSSQSVLYESRNKVSVM	WASTNES	QQYHRLPLS	94 µM	2 of 3	2 of 9
KSSQSVLYESYNKNSVY	WASTRES	QQYHRLKLS	130 µM	1 of 3	1 of 9
KSSQRVLLESRNKNSVL	WASTRES	QQYHRLPLS	300 µM	2 of 3	6 of 9
KSSQSVLYESRNKNSVA	WASTRIS	QQYHRLEHS	300 µM	1 of 3	3 of 9
KSSQSVLYESRNKNSVA	WAHTIES	QQYHRLNLS	500 µM	1 of 3	2 of 9
KSSQSVLLEGRNKNSSA	WASTRES	QQYHRLPLS	1.4 mM	1 of 3	1 of 9
KSSQSVLYESRNKNSVA	WASYRES	QQYHRWPAS	no signal	0 of 3	0 of 9
KSSQSVLYEQRNKNCVA	WASTRKS	QQYHRLPLS	no signal	0 of 3	3 of 9
KSEQSVLYESTNKNNVA	WASTRES	QQYHRLPLS	no signal	0 of 3	0 of 9
KSSQSPLYESRNKVSVA	WASTRES	QQYHDLPLS	no signal	0 of 3	1 of 9
KSCQSVLYESRNKNSVA	VASTRES	QQYHRLGLS	no signal	0 of 3	0 of 9
KSSQSVLYESRNKNSVA	PISTRES	QQYHRLPES	no signal	0 of 3	5 of 9
KSSQSVLYASRNKNSVR	WASTRES	QQYHMLPLS	no signal	0 of 3	0 of 9
KSSQSVLYESRNKNSVA	WWSARES	KQYHRLPLS	no signal	0 of 3	2 of 9
KSSQSSLYASRNKNSVY	WASTRES	QQYHRLPLS	no signal	0 of 3	0 of 9
CSMQSVLYESRNKNSVA	WASTRES	QQYHRLQLS	no signal	0 of 3	2 of 9
KSSQSVKYESRNKNSVA	WASTRES	QQYFRLPLT	no signal	0 of 3	0 of 9

8 of these entries, quoted again:

CDR-L1	CDR-L2	CDR-L3	Kd (apparent)	replicates with signal	signal with controls
ESSQSVLTESRNKNSVA	WAITRES	QQYHRLPLS	280 nM	3 of 3	7 of 9
KSIQSVLYESRNKNSVA	WASTRES	QQYHRLPMS	7.2 µM	3 of 3	1 of 9
KVSQSELYESRNKNSVA	WASTRES	QQYHRPPLS	24 nM	3 of 3	1 of 9
SSSQSVLYESRNANEVA	WASTRES	QQYHRLPLS	520 nM	3 of 3	2 of 9
KSSQSVLYEARNKNSVA	WASSLES	QQYHRLPLS	160 nM	3 of 3	0 of 9
KSSQRVLLESRNKNSVL	WASTRES	QQYHRLPLS	300 µM	2 of 3	6 of 9
SESQSVLYESRNKNSVA	WASTRES	QQYHRLPLS	49 nM	3 of 3	0 of 9
KSSQSVLYESRNKDSVA	WASTRHS	QQYHRLPLC	9.5 µM	2 of 3	3 of 9